Tested on: breast cancer cell line SUM1315 and Tiam1-deficient fibroblast mixed cell xenograft
Experiment: Direct treatment of mixed cell tumor-fibroblast xenograft-bearing mice
Conditions: AgA 1.25 mg/kg; FIG. 11

CN1C(=O)N[C@H]2[C@@H]3NC(=O)c4ccc(Br)n4[C@@H]3C[C@]21O [AgA (1), (−)-agelastatin A]
mice with 0 lung metastases: ~800

— patent US11932650B2, “Potent agelastatin derivatives as modulators for cancer invasion and metastasis” (Massachusetts Institute of Technology, priority 2017, dated 2024)
